Measurements from article PMC6593233 (Frontiers in Pharmacology, 2019).

By UniProt entry, the sequences of proteins in these tests, tags left out. Where a name states a change or a piece, a line headed by the entry shows the natural chain unless it says otherwise.
UniProt Q12809: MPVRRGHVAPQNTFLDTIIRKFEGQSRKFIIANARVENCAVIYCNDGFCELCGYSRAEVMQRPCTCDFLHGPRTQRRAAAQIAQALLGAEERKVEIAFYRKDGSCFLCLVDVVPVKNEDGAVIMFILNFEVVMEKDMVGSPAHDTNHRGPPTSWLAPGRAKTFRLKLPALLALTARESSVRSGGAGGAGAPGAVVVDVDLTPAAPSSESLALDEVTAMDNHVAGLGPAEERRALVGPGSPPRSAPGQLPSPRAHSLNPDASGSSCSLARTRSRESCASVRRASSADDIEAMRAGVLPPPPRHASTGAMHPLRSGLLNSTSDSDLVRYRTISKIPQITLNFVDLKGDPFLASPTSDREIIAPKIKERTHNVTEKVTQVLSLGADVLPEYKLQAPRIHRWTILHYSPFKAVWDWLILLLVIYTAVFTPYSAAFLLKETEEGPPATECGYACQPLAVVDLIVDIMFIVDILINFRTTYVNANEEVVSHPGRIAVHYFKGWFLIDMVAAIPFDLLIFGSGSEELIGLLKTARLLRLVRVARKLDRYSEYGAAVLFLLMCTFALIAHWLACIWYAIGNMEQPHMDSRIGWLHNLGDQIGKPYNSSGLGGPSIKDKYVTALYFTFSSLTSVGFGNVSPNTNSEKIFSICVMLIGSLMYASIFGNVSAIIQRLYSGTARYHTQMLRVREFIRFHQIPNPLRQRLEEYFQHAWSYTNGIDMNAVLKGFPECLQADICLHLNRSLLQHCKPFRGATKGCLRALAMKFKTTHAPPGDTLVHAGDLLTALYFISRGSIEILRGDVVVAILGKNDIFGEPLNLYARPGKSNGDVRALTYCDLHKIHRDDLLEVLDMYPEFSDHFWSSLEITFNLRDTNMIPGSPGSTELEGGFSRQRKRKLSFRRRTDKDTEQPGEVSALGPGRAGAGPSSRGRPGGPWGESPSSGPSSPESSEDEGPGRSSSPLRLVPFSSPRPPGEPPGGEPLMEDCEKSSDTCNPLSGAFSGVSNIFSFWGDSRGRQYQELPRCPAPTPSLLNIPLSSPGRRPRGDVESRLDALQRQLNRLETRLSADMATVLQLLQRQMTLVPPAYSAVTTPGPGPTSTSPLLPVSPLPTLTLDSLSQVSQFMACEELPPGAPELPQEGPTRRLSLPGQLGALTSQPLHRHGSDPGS

Target: T1, hKv11.1 (Homo sapiens, UniProt Q12809)
T1 construct: expressed in transfected cells
Experiment: Automated patch clamp (QPatch), IKr in CHO-K1 cells stably expressing Kv11.1
Format: cell-based
Conditions: hKv11.1, automated patch clamp, present study

## Cc1nccn1CC1CCc2c(c3ccccc3n2C)C1=O (stereo not shown) [Ondansetron]
  IC50: 2790 nM
